Experimental data: patent US20250115628A1, “FLUORINATED FLUOROPHORES” (HOWARD HUGHES MEDICAL INSTITUTE, priority 2023, published 2025)

Key:
[1] = General UV-vis and fluorescence spectroscopy; assay type: physicochemical; conditions: rhodamine derivatives; 10 mM HEPES, pH 7.3
Protocol: Spectroscopy was performed using 1^−cm path length, 3.5^−mL quartz cuvettes or 1^−cm path length, 1.4^−mL semi-micro quartz cuvettes from Starna Cells. All measurements were taken at ambient temperature (22±2° C.). Absorption spectra were recorded on a Cary Model 100 spectrometer (Agilent), and fluorescence spectra were recorded on a Cary Eclipse fluorometer (Varian). The spectra, maximum absorption wavelength (labs), extinction coefficient at λabs (8), and maximum emission wavelength (em) were measured in 10 mM HEPES, pH 7.3 buffer (rhodamines and Malachite Green derivative 49) or 0.1 M NaOH (fluoresceins); the reported values for e are averages (n=3). Normalized spectra are shown for clarity.

[2] = rhodamine derivatives; 10 mM HEPES, pH 7.3; data from the inventors' published work; cited from earlier work
[3] = rhodamine derivatives; 10 mM HEPES, pH 7.3; data from the inventors' published work; cited from earlier work; remark: listed apart in the source

Row | Compound | λem [1] | Φf [2] | ε [3] | λem [3]
1 | [2H]C1([2H])N(c2ccc3c(c2)C(C)(C)C2=CC(=[N+]4C([2H])([2H])C([2H])([2H])C([2H])([2H])C4([2H])[2H])C=CC2=C3c2c(F)c(F)c(F)c(F)c2C(=O)[O-])C([2H])([2H])C([2H])([2H])C1([2H])[2H] [compound 40, JFX637] | 654 nm |  |  | 
2 | Si-Q-rhodamine [compound 95] |  | 0.38 | 77,000 M^−1cm^−1 | 654 nm

Where two headings read alike, the source gives them in different places.
